{"source": "patent US20250318524A1", "about": "“ANTIMICROBIAL COATING COMPOSITION AND METHOD OF USE THEREOF” (priority 2024, published 2025)", "assay": "Selection of antimicrobial agents: solubility in aqueous solution, stability, compatibility with the coating composition", "data": [{"substance": "chlorhexidine acetate", "values": [{"measurement": "compatibility with formulation", "value": "compatibility with formulation"}, {"measurement": "solubility in water", "value": "good water solubility"}]}]}
